Data published in article PMC4571291.

Columns and labels:
[1] = target: actin (UniProt P68135); assay: ITC; second site (KD2); settings: domain or fragment
[2] = target: actin (UniProt P68135); assay: ITC; first site (KD1); settings: domain or fragment

Kd [1]: 1600 nM | Kd [2]: 22 nM
Substance: Tmod1_(ABS2)Mut (from UniProt P28289-1 164-351)
